tested on: Nc1nc2c(c(=O)[nH]1)N=C(CNc1ccc(C(=O)N[C@@H](CCC(=O)O)C(=O)O)cc1)CN2; test: purified protein; settings: NADPH

“Bd DHFR (dihydrofolate reductase, Bd3231) (Bdellovibrio bacteriovorus HD100)” and “Bd DHFR_F51I (dihydrofolate reductase, Bd3231) (Bdellovibrio bacteriovorus HD100; F51I)” are within error of each other in Km: 5.6 ± 1.9 µM for the first, 4.9 ± 1.1 µM for the second.

Going from “Bd DHFR_M29L (dihydrofolate reductase, Bd3231) (Bdellovibrio bacteriovorus HD100; M29L)” to “Bd DHFR_M29L_F51I (dihydrofolate reductase, Bd3231) (Bdellovibrio bacteriovorus HD100; F51I/M29L)”, the Km rises from 3.4 ± 0.6 µM to 9.2 ± 1.2 µM (2.7-fold).

Going from “Bd DHFR (dihydrofolate reductase, Bd3231) (Bdellovibrio bacteriovorus HD100)” to “Bd DHFR_F51I (dihydrofolate reductase, Bd3231) (Bdellovibrio bacteriovorus HD100; F51I)”, the kcat falls from 299 s⁻¹ to 73 s⁻¹ (4.1-fold).

Compared with “Bd DHFR_M29L (dihydrofolate reductase, Bd3231) (Bdellovibrio bacteriovorus HD100; M29L)”, “Bd DHFR_M29L_F51I (dihydrofolate reductase, Bd3231) (Bdellovibrio bacteriovorus HD100; F51I/M29L)” is 4.4-fold higher in kcat: 25 s⁻¹ for the first, 109 s⁻¹ for the second.

First: Bd DHFR (dihydrofolate reductase, Bd3231) (Bdellovibrio bacteriovorus HD100)
Second: Bd DHFR_F51I (dihydrofolate reductase, Bd3231) (Bdellovibrio bacteriovorus HD100; F51I)
The kcat/Km of the first is 3.6-fold higher: 5.4e+07 M⁻¹ s⁻¹ for the first, 1.5e+07 M⁻¹ s⁻¹ for the second.

Going from “Bd DHFR_M29L (dihydrofolate reductase, Bd3231) (Bdellovibrio bacteriovorus HD100; M29L)” to “Bd DHFR_M29L_F51I (dihydrofolate reductase, Bd3231) (Bdellovibrio bacteriovorus HD100; F51I/M29L)”, the kcat/Km rises from 7.3e+06 M⁻¹ s⁻¹ to 1.2e+07 M⁻¹ s⁻¹ (1.6-fold).

— publication PMC7093396 (Scientific Reports, 2020)
